Reference: ChEMBL document CHEMBL1143266, “Synthesis of spiro[chroman-2,4'-piperidin]-4-one derivatives as acetyl-CoA carboxylase inhibitors” (Bioorg Med Chem Lett, 2009)
pIC50: −log10 of the molar value.

Legend:
[1] = target: Acetyl-CoA carboxylase 1 (Rattus norvegicus, UniProt P11497); assay: Inhibition of rat acetyl-CoA carboxylase 1
[2] = target: Acetyl-Coenzyme A carboxylase 2 (Rattus norvegicus, UniProt Q1HEC0); assay: Inhibition of rat acetyl-CoA carboxylase 2

- pIC50 [1]: 7.26
- pIC50 [2]: 7.26
SMILES: O=C(c1c2ccccc2cc2ccccc12)N1CCC(N2CCC[C@@H](C(=O)N3CCOCC3)C2)CC1
